{"source": "patent US20170157251A1", "about": "“Bi-Specific Monovalent Diabodies That are Capable of Binding CD19 and CD3, and Uses Thereof” (MacroGenics, Inc., priority 2015, published 2017)", "biological_target": "T1, soluble human CD3ε/δ heterodimer and soluble human CD19-biotin (Homo sapiens, UniProt P07766+P15391)", "T1 construct": "coated with soluble human CD3ε/δ heterodimer; followed by addition of soluble human CD19-biotin", "experiment": "Bifunctional ELISA, simultaneous engagement of both target antigens", "format": "binding", "excerpt": "The plates were washed and the immune complex was detected with chemoluminescent substrate conjugated to streptavidin.", "data": [{"substance": "Control DART 1: control DART capable of binding to fluorescein and CD3 [reference compound]", "values": [{"measurement": "simultaneous binding to both CD19 and CD3", "value": "Neither Control DART 1 (▪) nor Control DART 2 (▴) were capable of binding to both targets simultaneously"}]}]}
